Assay results from paper PMC6150365, “Simultaneous Determination of Seven Components in Rat Plasma by the UPLC-MS/MS Method and Application of Pharmacokinetic Studies to SimiaoYong’an Decoction” (Molecules : A Journal of Synthetic Chemistry and Natural …, 2017).

Experiment: Pharmacokinetic study in rats after oral administration of SYD extract and its single and combined TCM extracts (UPLC-MS/MS of plasma)
Conditions: male, Sprague-Dawley, rat, n = 6

Question: What does the source list for `O=C(/C=C/c1ccc(O)c(O)c1)O[C@@H]1C[C@](O)(C(=O)O)C[C@@H](O)[C@H]1O` [Chlorogenic acid, chlorogenic acid]?
Answer: Tmax (4.28 g/kg, oral SN + AS + GU extract 4.28 g/kg): 1.58 ± 0.38 h; Tmax (4.73 g/kg, oral LJ + SN + GU extract 4.73 g/kg): 1.67 ± 0.26 h; Tmax (5.43 g/kg, oral LJ + SN + AS extract 5.43 g/kg): 1.58 ± 0.38 h; Tmax (8.25 g/kg, oral SYD extract 8.25 g/kg): 1.67 ± 0.26 h
